Results from patent publication US20060148728A1 (priority 2000, published 2006).

Assay: Solubilization and stability of podophyllotoxin in surfactant formulations
Type: physicochemical
Settings: TWEEN-80/alcohol solution diluted with an aqueous solution

Structure (SMILES): COc1cc([C@@H]2c3cc4c(cc3[C@H](O)[C@H]3COC(=O)[C@H]23)OCO4)cc(OC)c1OC [podophyllotoxin]
- Precipitation of podophyllotoxin after dilution: precipitates within several hours
